# Reference: US20200354426A1 (MEDIMMUNE LIMITED, priority 2016, published 2020)
# Chains of the proteins cited; added tags and fusions are not shown. Residues count along the entry.
# UniProt P43220, 24-463: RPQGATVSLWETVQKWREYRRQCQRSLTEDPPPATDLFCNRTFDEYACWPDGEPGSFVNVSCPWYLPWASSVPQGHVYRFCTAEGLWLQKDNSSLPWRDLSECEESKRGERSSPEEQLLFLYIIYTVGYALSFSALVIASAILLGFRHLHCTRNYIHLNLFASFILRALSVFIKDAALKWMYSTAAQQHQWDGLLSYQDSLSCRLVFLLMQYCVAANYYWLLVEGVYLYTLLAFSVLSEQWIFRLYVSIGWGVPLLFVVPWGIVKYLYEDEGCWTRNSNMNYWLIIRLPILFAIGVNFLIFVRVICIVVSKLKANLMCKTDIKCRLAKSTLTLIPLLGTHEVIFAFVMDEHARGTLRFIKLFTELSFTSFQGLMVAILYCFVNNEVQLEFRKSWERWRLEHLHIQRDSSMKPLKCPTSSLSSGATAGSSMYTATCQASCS
# Legend:
# [1] = Stability testing of peptides in plasma; type: in vitro ADME; settings: human plasma, 37° C., 24 h
# Description: The stability in plasma of the peptideS […], […], […] and […] was determined as follows. […] The spiked plasma samples were gently mixed and allowed to equilibrate for about 5 minutes before start of experiment. The plasma samples were incubated for 48 hours in a GalaxyR CO2 incubator at 37° C. […] The samples were stored at -70° C. until analysis. Plasma samples were assayed as follows. […] After mixing and centrifugation, 100 μl the supernatant was transferred to a new plate and 1 μl was injected onto an analytical column. The analysis was performed using a μLC-system ([…]) coupled to a medium high resolution mass spectrometer (Perkin Elmer PenTOF) with positive electrospray ionisation. […] Flow: 0.1 ml/min using a slow reversed phase gradient. […] Cleavage products arise from the action of the protease DPP IV in plasma. Both the degradation of the peptides and formation of peptide products were reported in percentage of the initial peptide concentration. Peaks were integrated and % remaining peptide was calculated: […] Levels of deamidation and DPP IV cleavage were low for […] and […].
# [2] = tested on: overweight or obese subjects with type 2 diabetes mellitus; assay: Phase 1/2 multiple-ascending-dose study of G933, Cohorts 1-6 (efficacy, PK, safety); type: in vivo, human
# Description: Approximately 75 overweight or obese subjects with relatively well controlled type 2 diabetes mellitus (T2DM) are enrolled to participate in the study. The enrolled subjects meet the following inclusion and exclusion criteria.
# Part A consists of 3 cohorts.
# Part B consists of 1 cohort.
# The initial dose is 100 μg.
# Approximately 32 overweight or obese subjects with relatively well controlled type 2 diabetes mellitus (T2DM) are enrolled to participate in the study. The enrolled subjects meet the inclusion and exclusion criteria described in Example 5 with the following exceptions:
# Inclusion Criteria: • Cohort 5 and 6 subjects must be willing and able to self-administer daily subcutaneous (SC) injections following an initial self-injection of placebo (or normal saline) during the screening period.
# A randomized, double-blind, multiple-ascending dose study is performed. This study consists of 2 cohorts: cohort 5 and cohort 6. […] Cohorts 5 and 6 have approximately 32 subjects total and are run in parallel.
# The study consists of an inpatient up-titration evaluation period beginning on Day 3 for both Cohorts 5 and 6 and an outpatient follow-up period. The first 4 days and the final day of dosing at 300 μg […].
# Subjects are admitted to the clinic as described in Example 5 for Cohorts 1-4. […] Subjects have a second inpatient period for the initiation of the 300 μg dose ending on the fourth day at that dose followed by at-home self administration.
# Additional time points include before commencing the 300 μg dose (Day 16 for Cohort 5 and Day 11 for Cohort 6) and at the end of dosing (Day 22 for Cohort 5 and Day 17 for Cohort 6). The MMT are performed as described in Example 5.
# [3] = biological target: Human GLP1R (Homo sapiens, UniProt P43220); settings: calculated from variation in cAMP generation with HSA concentration
# [4] = based on monkey AUC data
substance,measurement,setting,value
L-Histidyl-L-seryl-L-glutaminylglycyl-L-threonyl-L-phenylalanyl-L-threonyl-L-seryl-L-alpha-aspartyl-(N6-[N-(1-oxohexadecyl)-L-gamma-gutamyl])L-lysy-L-sery-L-alpha-glutamyl-L-tyrosyl-L-leucyl-L-alpha-aspartyl-L-seryl-L-alpha-glutamyl-L-arginyl-L-alanyl-L-arginyl-L-alpha-L-aspartyl-L-phenylalanyl-L-valyl-L-alanyl-L-tryptophyl-L-leucyl-L-alpha-glutamyl-L-alanylglycylglycine [Peptide G933],% DPP cleaved product/+1 DPP cleaved product,[1],<1%
same,vomiting events,[2]; Cohort 1,no vomiting events were reported
same,active patients with vomiting events,[2]; Cohort 2,two
same,vomiting events,[2]; Cohort 2,three
same,active patients with vomiting events,[2]; Cohort 3,three
same,vomiting events,[2]; Cohort 3,thirteen
same,patients with decreased appetite,[2]; Cohort 3 (six patients),85.7%
same,systolic or diastolic blood pressure,[2]; Cohort 4,No increase
same,patients who vomited,[2]; Cohort 4 (8 patients),32.0%
same,patients with nausea,[2]; Cohort 4 (13 patients),52.0%
same,Subject with At lease one G933-related event,"[2]; Cohort 4, 200 μg, N = 25",20 (80.0%)
same,Subject with At least one G933-related serious event,"[2]; Cohort 4, 200 μg, N = 25",0
same,Subject with At least one event,"[2]; Cohort 4, 200 μg, N = 25",22 (88.8%)
same,Subject with At least one event leading to discontinuation of G933,"[2]; Cohort 4, 200 μg, N = 25",3 (12.0%)
same,Subject with At least one event of ≥ grade 3 severity,"[2]; Cohort 4, 200 μg, N = 25",0
same,Subject with At least one serious event,"[2]; Cohort 4, 200 μg, N = 25",0
same,Subject with Death (grade 5 severity),"[2]; Cohort 4, 200 μg, N = 25",0
same,increase in heart rate,"[2]; Cohort 4, Day 13",12.8 bpm
same,increase in heart rate,"[2]; Cohort 4, Day 41",6.9 bpm
same,patients with nausea,[2]; Cohort 5 (3 patients),27.3%
same,patients with vomiting,[2]; Cohort 5 (3 patients),27.3%
same,heart rate increase from baseline,"[2]; Cohort 5, 22 days administration",approximately 7.6 BPM
same,patients with vomiting,[2]; Cohort 6 (1 patient),8.3%
same,patients with nausea,[2]; Cohort 6 (5 patients),41.7%
same,heart rate increase from baseline,"[2]; Cohort 6, 17 days administration",approximately 5.9 BPM
same,systolic or diastolic blood pressure,[2]; Cohorts 1-3,No significant change
same,patients with nausea,[2]; Cohorts 1-3 (6 patients),31.6%
same,patients with vomiting,[2]; Cohorts 1-3 (n=5),26%
same,patients with cardiac adverse events,[2]; Cohorts 1-3 (seven patients),36.8%
same,patients with gastrointestinal adverse events,[2]; Cohorts 1-3 (thirteen patients),68.4%
same,samples confirmed positive for anti-G933 antibody,"[2]; Cohorts 1-3, post baseline",one
same,half life,"[2]; Cohorts 1-3, repeat dosing",approximately 11 hours
same,ambulatory systolic/diastolic blood pressure (SBP/DBP),[2]; Cohorts 5 and 6,no increase from baseline
same,rate of vomiting,[2]; Cohorts 5 and 6 together,16%
same,rate of nausea,[2]; Cohorts 5 and 6 together (8/24),33%
same,half-life,"[2]; dose range 100-300 μg, all cohorts",8 to 11 h
same,increase in pulse rate,[2]; each of Cohorts 1-3,about 10 bpm
same,Between-subject variability in Cmax,[2]; larger Cohort 4,40-50%
same,Between-subject variability in Cmax,[2]; smaller cohorts,20-30%
same,free peptide at 4.4% HSA,[3],0.29%
same,safety margin at the maximum proposed human dose of 2000 μg,[4],0.8
